{"source": "PubChem BioAssay AID1296", "about": "(Columbia University Molecular Screening Center, 2008)", "note": "The list shows a part of the results, in another mix than the full data. Activity calls are given as the source filed them.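 Rule for the calls: active = activation at 2 µM above a set limit, confirmed on inspection of the cell images; inconclusive = above the set limit but not confirmed on image inspection; inactive = the rest.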"}
{"experiment": "activators of insulin promoter-driven GFP, primary screen, imaging, TRM-6 cells, eGFP reporter, cell count (AID 1296);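 note: share of cells whose green reporter signal exceeds an intensity cutoff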", "settings": "at 2 µM, active compounds read high, plate-scaled: unstimulated 0, stimulated control 100", "how_it_was_run": "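System – human fetal islet-derived TRM-6 cells with tamoxifen-inducible insulin promoter–eGFP reporter · Amount – 1,000 cells per well · Schedule – overnight tamoxifen, then two-day compound incubation at 37 °C · Detection – high-content imaging of fixed cells with Hoechst nuclear stain · Read-out – percent cells above green-intensity threshold, converted to percent activation versus plate controls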"}
{"molecule": "CC(=O)NC(SC(=S)N(CC(C)C)CC(C)C)C(Cl)(Cl)Cl", "note": "(stereo unspecified)", "activation": "active: 294%"}
